Here are results for one molecule from patent publication US20250188044A1 (HARBIN MEDISAN PHARMACEUTICAL CO., LTD., priority 2021, published 2025).

The structures appear in SMILES notation.

The nature of this data set: Pharmacokinetic evaluation in rats. It is filed as in vivo, SD rats.

Take `Cc1cc(Cn2ncn(-c3ccc(OC(F)(F)F)cc3)c2=O)cc(C)c1OC(C)(C)C(=O)O` [Compound 61, 2-(2,6-Dimethyl-4-((5-oxo-4-(4-(trifluoromethoxy)phenyl)-4,5-dihydro-1H-1,2,4-triazo 1-1-yl)methyl)phenoxy)-2-methylpropionic acid]: the “pharmacokinetic properties (in words)” value is “good pharmacokinetic properties”. The “Half-life T1/2” value (intravenous injection, 2 mpk) worked out at 6.78 ± 0.60 h. The “Half-life T1/2” value (oral administration, 10 mpk) amounted to 5.11 ± 0.31 h.
